According to ChEMBL document CHEMBL1145633, “Inhibitors of the tyrosine kinase EphB4. Part 1: Structure-based design and optimization of a series of 2,4-bis-anilinopyrimidines” (Bioorg Med Chem Lett, 2008):

Biological target: T1, Ephrin type-B receptor 4 (Homo sapiens, UniProt P54760)
T1 sequence (P54760 whole entry): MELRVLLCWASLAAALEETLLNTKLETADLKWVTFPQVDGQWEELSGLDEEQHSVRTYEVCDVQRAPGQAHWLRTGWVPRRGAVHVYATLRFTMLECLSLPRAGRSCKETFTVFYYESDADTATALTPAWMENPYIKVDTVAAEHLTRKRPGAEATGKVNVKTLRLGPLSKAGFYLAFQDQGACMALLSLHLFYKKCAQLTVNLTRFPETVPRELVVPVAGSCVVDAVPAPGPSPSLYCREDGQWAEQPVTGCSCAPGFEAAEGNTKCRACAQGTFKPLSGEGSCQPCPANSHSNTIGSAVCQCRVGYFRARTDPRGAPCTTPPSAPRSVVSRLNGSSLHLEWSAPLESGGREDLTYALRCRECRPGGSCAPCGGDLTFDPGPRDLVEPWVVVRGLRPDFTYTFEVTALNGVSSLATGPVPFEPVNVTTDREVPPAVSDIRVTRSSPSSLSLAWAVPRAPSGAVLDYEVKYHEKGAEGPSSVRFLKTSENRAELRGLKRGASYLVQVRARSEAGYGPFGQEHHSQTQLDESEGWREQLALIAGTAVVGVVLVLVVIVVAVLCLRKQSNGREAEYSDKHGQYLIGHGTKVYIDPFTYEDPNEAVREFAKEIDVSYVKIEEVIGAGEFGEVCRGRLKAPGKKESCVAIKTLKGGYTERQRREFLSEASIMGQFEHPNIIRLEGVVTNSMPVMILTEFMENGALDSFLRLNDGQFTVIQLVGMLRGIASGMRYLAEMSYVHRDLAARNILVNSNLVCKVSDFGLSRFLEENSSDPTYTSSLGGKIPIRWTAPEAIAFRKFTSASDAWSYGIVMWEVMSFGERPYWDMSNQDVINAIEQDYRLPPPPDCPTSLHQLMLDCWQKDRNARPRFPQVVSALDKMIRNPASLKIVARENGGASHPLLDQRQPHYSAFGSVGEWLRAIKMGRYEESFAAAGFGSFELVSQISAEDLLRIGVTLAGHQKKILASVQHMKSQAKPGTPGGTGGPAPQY
Assay: Inhibition of EphB4

SMILES	IC50 [nM]
Clc1ccc2c(c1Nc1ccnc(Nc3cccc(N4CCOCC4)c3)n1)OCO2	580
COc1cc(Nc2nccc(Nc3c(Cl)ccc4c3OCO4)n2)cc(OC)c1OC	240
NS(=O)(=O)c1cccc(Nc2nccc(Nc3c(Cl)ccc4c3OCO4)n2)c1	40
